Data: article PMC4697443 (Bioorganic & medicinal chemistry, 2015)

System: BV2 microglial cells

Q: “N-(1H-benzo[d]imidazol-2-yl)nicotinamide [Compound 17]” was tested. Which Viability did it give?
A: The Viability was 1000^d μM.

Marks after values point to notes of the source that are not given here.
